One series in a line: in vivo. The following applies: mouse, intravenous, ICR male mice, up-and-down method, read-out: Acute toxicity (LD50). The protocol:
ICR male mice 5 to 10 weeks old were used. The test substance was dissolved in a 5% dimethylsulfoxide aqueous solution, and the solution was intravenously administered in an amount of 0.1 to 0.2 ml/10 g body weight. An LD50 value was calculated by up-and-down method.

In series [1] the test system is experimental pancreatitis. Nature of the series: Effect on experimental pancreatitis (sodium taurochorate + trypsin into the common bile duct), survival ratio. It is filed as in vivo, SD-rats. The following applies: 80 μg/kg/min. x 80 min. continuous infusion, rat. The source says:
[II] Effect on experimental pancreatitis
SD-rats, body weight of about 200 g were, starved overnight, and 10 to 24 animals were used in one group. Sodium pentobarbital was intraperioneally administered to anesthetize each rat, and then a cannula was inserted to the femoral vein for the administration of the test substance. After abdominal surgery, the bile duct was blocked at a part thereof proximate to the liver, by a clip, a polyethylene tube was inserted to the common bile duct at a part thereof most proximate to the duodenum, and 0.1 ml of solution containing 2 mg sodium taurochorate and 1000 U trypsin dissolved in physiological saline was injected retrogrodely. After removal of the clip and tube, the common bile duct was ligated and the abdomen was closed. Note, the test substance was dissolved in an injective 5% glucose solution, and in the case of a continuous infusion, the solution was administered over 80 minutes starting from 10 minutes before the generation of pancreatitis. In the case of oral administration, the test substance was administered through an oral catheter 30 minutes before the generation of pancreatitis. After 24 hours and 48 hours from the generation of pancreatitis, the survival ratio of the animals was calculated and compared with a control group.

Bounds are passed on as bounds.

Take `NCC1CCC(C(=O)NC(Cc2ccccc2)C(=O)Nc2ccc(CC(=O)O)cc2)CC1` (stereo not drawn) [Compound 17]: the median lethal dose (LD50) (in general, the dose at which mortality reaches 50%) in “in vivo” is over 100 mg/kg. Besides, the “Effect on experimental pancreatitis Survival ratio(%) After 24 hours” value in series [1] (after 24 hours) turned out to be 46.4%. In addition, the “Effect on experimental pancreatitis Survival ratio(%) After 48 hours” value in series [1] (after 48 hours) was 37.3%.

Values taken from EP0369035A1, “AGENT FOR TREATING PANCREATITIS OR THE LIKE” (priority 1988, dated 1989).
